Key:
Salmonella = assay type: cell-based, S. typhimurium; conditions: pH 7.2
Method: (§1) The experiments described above characterizing the activity of granulysin peptides G1-G18 relied on counting bacterial colonies on plates. This assay is quite labor intensive and would not allow evaluation of many different compounds on a number of different microbes. Therefore, we optimized an assay in which the entire procedure could be completed in a single microtiter well. Briefly, peptides are diluted in 10 mM phosphate buffer, pH 7.2 supplemented with 0.03% LB (J. Sambrook, D. W. Russell, Molecular Cloning: A Laboratory Manual (Cold Spring Harbor Laboratory Press, New York, ed. 3, 2001) pg. A2.2, Retrieved from http://openwetware.org/wiki/LB) and 25 μl is added to microtiter wells. Bacteria (25 μl) are added (˜5×10^6 colony forming units/ml) in the same buffer. After a 3-hour incubation at 37° C., 150 μl of LB is added and the plates are incubated overnight. The OD at 600 nm is read on an ELISA plate reader. The minimum inhibitory concentration (MIC) is the lowest concentration allowing no bacterial growth. The IC50 is the concentration of peptide that results in 50% growth compared to the medium.
(§2) We now describe additional peptides and their activity. The peptides have been designed, synthesized, and have been tested for lysis of E. coli and S. typhimurium (gram negative bacteria), B. cereus (gram positive bacterium). Results are shown in Table 2 along with the amino acid sequence of the peptide. Changes from the naturally occurring sequence are underlined. In general, the desired result is lysis of bacteria at low concentration (<1 μM).
(§3) In Table 2, Columns 2-7 are the MIC and IC50 (concentration required for 50% inhibition of growth) for each organism (E. coli, Salmonella, and B. cereus). The MIC (minimum inhibitory concentration) was determined as described above, in a multiwell plate assay. […] L-isomer amino acids are designated by capital letters while D-isomer amino acids are designated by lower case letters.

U937 cells = assay: Lysis of tumor cells: apoptosis of U937 by 3H-thymidine; conditions: U937, 50 μM peptide, 4-6 hours
B. cereus = assay type: cell-based; conditions: pH 7.2
Method: as §1, §2, §3

E. coli DH5a = assay type: cell-based; conditions: pH 7.2
Method: as §1, §2, §3

S. typhimurium = conditions: Wang et al.; cited from earlier work
E. coli = assay: Microtiter plate MIC assay in media with different concentrations of NaCl; assay type: cell-based; conditions: NaCl increased from 10 mM to 150 mM
Method: as §1
The activity of many cationic antimicrobial peptides is abrogated in isotonic media, most likely because the electrostatic interaction of the positively charged peptides with the negatively charged membrane is disrupted by salt. […]

Jurkat cells = assay type: cell-based
Text: To further investigate the contribution of secondary structure to function, additional Peptides G16-G19 (beyond peptides G1-G15, previously reported) were synthesized. Peptide G16 is identical to G13, except that a D-alanine residue was substituted for the L-alanine at position 30. […] In peptide G17, the two arginine residues in loop two are substituted with glutamine.
As shown above, substitution of the two arginine residues in Loop 2 with glutamine abrogates activity against Jurkat cells but only slightly affects lysis of S. typhimurium. Peptide G18 is identical to G14 except that a D-arginine was substituted at position 46. […] Peptide G19 incorporates both the R→Q substitutions as well as the D-arginine at position 46.

SMILES | IC50 (Salmonella) [nM] | Salmonella MIC (Salmonella) [µM] | apoptosis of tumor cells (U937 cells) | B. cereus MIC (B. cereus) [µM] | IC50 (B. cereus) [nM] | E. coli DH5a MIC (E. coli DH5a) [µM] | IC50 (E. coli DH5a) [nM] | bacterial lysing ability (S. typhimurium) | effect of salt concentration on activity (E. coli) | lysis of Jurkat cells (Jurkat cells)
CSCC[C@H](NC(=O)[C@H](Cc1ccccc1)NC(=O)[C@H](CC(N)=O)NC(=O)[C@H](CCCNC(=N)N)NC(=O)[C@@H]1CSSC[C@H](NC(=O)[C@@H](NC(=O)[C@H](CCCNC(=N)N)NC(=O)[C@@H](NC(=O)[C@H](C)NC(=O)[C@H](C)NC(=O)[C@H](CC(N)=O)NC(=O)[C@H](CO)NC(=O)[C@@H](NC(=O)[C@H](CO)NC(=O)[C@H](CCCNC(=N)N)NC(=O)[C@@H](N)CCC(N)=O)C(C)C)[C@@H](C)O)C(C)C)C(=O)N[C@@H](CCCNC(=N)N)C(=O)N[C@@H]([C@@H](C)O)C(=O)NCC(=O)N[C@@H](CCCNC(=N)N)C(=O)N[C@@H](CO)C(=O)N[C@@H](CCCNC(=N)N)C(=O)N[C@@H](Cc2c[nH]c3ccccc23)C(=O)N[C@@H](CCCNC(=N)N)C(=O)N[C@@H](CC(=O)O)C(=O)N[C@@H](C(C)C)C(=O)N1)C(=O)N[C@@H](CCCNC(=N)N)C(=O)N[C@@H](CCCNC(=N)N)C(=O)O [Peptide G8, reference compound] | 890 | 1.4 | cause apoptosis of tumor cells | 1.4 | 900 | 0.75 | 550 | same bacterial lysing ability as full-length granulysin | lost minimal activity | 
CSCC[C@H](NC(=O)[C@H](Cc1ccccc1)NC(=O)[C@H](CC(N)=O)NC(=O)[C@H](CCCNC(=N)N)NC(=O)[C@H](CO)NC(=O)[C@@H](NC(=O)[C@H](CC(=O)O)NC(=O)[C@H](CCCNC(=N)N)NC(=O)[C@H](Cc1c[nH]c2ccccc12)NC(=O)[C@H](CCCNC(=N)N)NC(=O)[C@H](CO)NC(=O)[C@H](CCCNC(=N)N)NC(=O)CNC(=O)[C@@H](NC(=O)[C@H](CCCNC(=N)N)NC(=O)[C@H](CO)NC(=O)[C@@H](NC(=O)[C@H](CCCNC(=N)N)NC(=O)[C@@H](NC(=O)[C@H](C)NC(=O)[C@H](C)NC(=O)[C@H](CC(N)=O)NC(=O)[C@H](CO)NC(=O)[C@@H](NC(=O)[C@H](CO)NC(=O)[C@H](CCCNC(=N)N)NC(=O)[C@@H](N)CCC(N)=O)C(C)C)[C@@H](C)O)C(C)C)[C@@H](C)O)C(C)C)C(=O)N[C@@H](CCCNC(=N)N)C(=O)N[C@@H](CCCNC(=N)N)C(=O)O [Peptide G8.1] | 1750 | 2.8 |  | 2.8 | 1750 | 0.75 | 550 | same bacterial lysing ability as full-length granulysin | moderately affected by increasing concentrations of salt | 
CC(C)[C@H](NC(=O)[C@H](CO)NC(=O)[C@H](CCCNC(=N)N)NC(=O)[C@@H](N)CCC(N)=O)C(=O)N[C@@H](CO)C(=O)N[C@@H](CC(N)=O)C(=O)N[C@@H](C)C(=O)N[C@H](C)C(=O)N[C@H](C(=O)N[C@@H](CCCNC(=N)N)C(=O)N[C@H](C(=O)N[C@@H](CS)C(=O)N[C@@H](CCCNC(=N)N)C(=O)N[C@H](C(=O)NCC(=O)N[C@@H](CCCNC(=N)N)C(=O)N[C@@H](CO)C(=O)N[C@@H](CCCNC(=N)N)C(=O)N[C@@H](Cc1c[nH]c2ccccc12)C(=O)O)[C@@H](C)O)C(C)C)[C@@H](C)O [Peptide G16, QRSVSNAaTRVCRTGRSRW] |  |  |  |  |  |  |  |  |  | Neither peptide G16 nor G17 lysed Jurkat cells in an appreciable way

Source: patent US7745390B2, “Antimicrobial peptides” (priority 2005, dated 2010)
